miR-21 FLuc: raises the signal of a miR-21 reporter | HeLa miR-21 FLuc reporter, luciferase, 48 h | Potency, µM (doses to about 38.3 µM) | 340,000 tested, under 10 active | AID 2288; active = well fitted rising curve with a large enough effect; inconclusive = small, poorly fitted or top-dose-only effect; inactive = no such curve, though single readings can be large or run the other way;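 note: miR-21 action dims this reporter so a rising signal means less miR-21 action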
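HeLa cells stably expressing CMV-driven firefly luciferase with a downstream miR-21 binding sequence, endogenously expressing miR-21, were treated with titrations (up to about 40uM final) for 48 hours at 37 degree Celsius. Luciferase luminescence was read after lysis.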
B2AR arrestin: beta2AR (human) beta-arrestin recruitment activity. beta-arrestin recruitment to beta2AR, cell-based reporter. 330,000 compounds, 0.02% hits. P07550. Potency, µM (series often up to 46.1 µM), usual class: activators; note: nearly all actives have a fitted effect of over 65% in size
Nrf2 inh: Nrf2 pathway inhibition; A549 ARE-Fluc reporter, luciferase luminescence, 18-24 h; Potency, µM (titrated, usually from 46 µM), actives largely listed as inhibitors; 360,000 compounds, 2.1% hits; note: nearly all actives have a fitted effect of over 60% in size
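Quantitative HTS in A549 cells stably bearing an antioxidant response element-firefly luciferase construct. Inhibition of Nrf2-driven transcription was scored by luminescence after 18-24 h of compound exposure at 37 °C.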
A549 tox-1: counter-screen for Nrf2 inhibitors: cytotoxicity in A549 cells | A549 ARE-Fluc cells, CellTiter-Fluor viability, 18-24 h | Potency, µM (titrated, usually from 46 µM), usual class: inhibitors | 390,000 compounds, 0.16% hits | AID 504648
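A549 ARE-Fluc cells in 5% FBS OPTI-MEM, 5000 cells/well, rested 2 h then exposed to compounds in concentration-response for 18-24 h at 37 °C. Viability by CellTiter-Fluor fluorescence (Ex 405/Em 525) after 30 min; luciferase luminescence (BugLite, 15 min, RT) read afterwards.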
Nrf2 activator: activates Nrf2 signaling | AREc32 ARE-luciferase reporter (MCF7-derived line), luminescence, 24 h | Potency, µM (top dose mostly 46.1 µM), hits mostly activators | 410,000 compounds, 0.31% hits; note: nearly all actives have a fitted effect of over 65% in size
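Nrf2 activation is followed as ARE-luciferase induction in the AREc32 line after one day of compound treatment; luminescence is read with Steady-Glo.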
FLuc enzyme inh: counter-screen for Nrf2 inhibitors: firefly luciferase enzyme inhibition; shares compounds with Nrf2 inh; purified firefly luciferase, luminescence inhibition; Potency, µM (top dose mostly 57.5 µM), actives largely listed as inhibitors; 1,400 compounds, 4% hits; AID 720522; note: nearly all actives have a fitted effect of over 65% in size
A549 tox-2: toxic to A549 ARE-Fluc cells in Nrf2 counterscreen; shares compounds with Nrf2 inh; A549 ARE-Fluc cells, cytotoxicity counterscreen; Potency, µM (series often up to 46.1 µM), hits mostly inhibitors; 1,400 compounds, 2% hits;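 note: cells exposed to compounds for 18 to 24 hours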
ARE-Fluc inh: confirmation of Nrf2 inhibitors in A549 ARE reporter cells | Potency, µM (series often up to 46.1 µM), usual class: inhibitors | 1,400 compounds, 74% hits | A549 ARE-firefly luciferase reporter, luminescence | shares compounds with Nrf2 inh; note: nearly all actives have a fitted effect of over 65% in size
Of the large screens only hits and unclear results are named; the others gave an inactive call (follow-up assays come after a bar, where shown); ! = repeats disagree. This is a sample that favours compounds with a hit; in the whole collection about 2.2% have one here. Unless noted, calls come from the whole dose curve; as a rule, active = well fitted curve in the direction sought with a large enough effect; inconclusive = small, poorly fitted or top-dose-only effect, or another doubt; inactive = no such curve, though single readings can be large; an effect the other way counts as inactive or inconclusive.

CCOC(=O)c1cc2c(=O)n3ccccc3nc2n(CCOC)c1=NC(=O)c1c(-c2c(F)cccc2Cl)noc1C	Nrf2 inh 6.5µM! | FLuc enzyme inh inactive | A549 tox-2 inactive | ARE-Fluc inh inconclusive
COc1ccccc1NC(=O)CSc1oc(-c2cccs2)nc1S(=O)(=O)c1ccccc1	none (no result: B2AR arrestin)
CC1(C)CC2CC(C)(CN2C(=O)COC(=O)c2ccccc2C(F)(F)F)C1 (centres undefined)	Nrf2 inh 3.7µM (no result: miR-21 FLuc) | FLuc enzyme inh inactive | A549 tox-2 inactive | ARE-Fluc inh inactive
Cc1cc(NC(=O)c2cc(Cl)ccc2Cl)ccc1-c1cc2ccccc2oc1=O	Nrf2 inh inconclusive (no result: B2AR arrestin) | FLuc enzyme inh inactive | A549 tox-2 inactive | ARE-Fluc inh inactive
Cc1cc(C)cc(C(=O)NC(=S)Nc2ccc(-c3cc4ccccc4oc3=O)cc2)c1	Nrf2 inh 3.7µM | FLuc enzyme inh inactive | A549 tox-2 inactive | ARE-Fluc inh inconclusive
CC(=O)c1cc(-c2ccccc2)n(CCC(=O)Nc2ccc(C(C)C)cc2)c1C	miR-21 FLuc inconclusive, A549 tox-1 inconclusive (no result: B2AR arrestin, Nrf2 inh)
COc1ccc(-c2nnn(CC(=O)N3CCN(c4ccc(F)cc4)CC3)n2)cc1	none
COc1ccc(N2CCN(C(=O)CN3CCN(c4nc(-c5ccc(F)cc5)cs4)CC3)CC2)cc1	Nrf2 inh 7.3µM, A549 tox-1 inconclusive | FLuc enzyme inh inactive | A549 tox-2 inactive | ARE-Fluc inh 12µM
Cc1ccc(-c2c(C3C4C=CCC(C)C4C(=O)N3Cc3ccccc3)ccc3ccccc23)cc1 (centres undefined)	Nrf2 inh inconclusive (no result: miR-21 FLuc, B2AR arrestin, Nrf2 activator)
C=CCN(c1ccccc1)S(=O)(=O)c1cccc(C(=O)Nc2nc3ccccc3[nH]2)c1	Nrf2 inh 2.9µM, A549 tox-1 inconclusive | FLuc enzyme inh inactive | A549 tox-2 inactive | ARE-Fluc inh 5.8µM
Cc1cccc(OCc2n(CC(=O)OC3CC(C)CCC3C(C)C)c3ccccc3[n+]2C)c1 (centres undefined)	miR-21 FLuc inconclusive
CC1CCC(C(C)C)C(OC(=O)Cn2c(-c3ccccc3)[n+](C)c3ccccc32)C1 (centres undefined)	miR-21 FLuc inconclusive, Nrf2 inh 3.7µM, A549 tox-1 inconclusive | FLuc enzyme inh inactive | A549 tox-2 inconclusive | ARE-Fluc inh 2.1µM
CC1CCC(C(C)C)C(OC(=O)Cn2c(-c3ccc(F)cc3)[n+](C)c3ccccc32)C1 (centres undefined)	miR-21 FLuc inconclusive, Nrf2 inh 8.2µM, A549 tox-1 inconclusive | FLuc enzyme inh inactive | A549 tox-2 inconclusive | ARE-Fluc inh 9.2µM
CN(Cc1ccccc1)S(=O)(=O)c1ccc(NC(=O)c2cc(=O)c3ccccc3o2)cc1	miR-21 FLuc inconclusive, Nrf2 inh inconclusive (no result: B2AR arrestin)
O=C(CNc1cc(S(=O)(=O)N2CCCC2)ccc1OCC(F)(F)F)Nc1ccc(SC(F)F)cc1	miR-21 FLuc inconclusive, Nrf2 inh 5.2µM, A549 tox-1 inconclusive | FLuc enzyme inh inactive | A549 tox-2 inactive | ARE-Fluc inh inconclusive
O=C(CNc1cc(S(=O)(=O)N2CCCC2)ccc1OCC(F)(F)F)Nc1cc(Cl)cc(Cl)c1	none (no result: Nrf2 inh, A549 tox-1, Nrf2 activator)
CN(C)c1ccc(/C=C/C(=O)c2ccc(O)cc2)cc1	Nrf2 inh 5.2µM (no result: miR-21 FLuc, B2AR arrestin) | FLuc enzyme inh 0.21µM | A549 tox-2 inactive | ARE-Fluc inh 2.3µM
CCN1CCOC(=O)C1CC(=O)Nc1cc(Cl)ccc1OC (centres undefined)	none (no result: B2AR arrestin)
Cc1cc2c(=Cc3ccc(N(C)C)cc3)c3ccccc3n2[n+]1C	Nrf2 inh 2.6µM, A549 tox-1 16µM (no result: miR-21 FLuc, B2AR arrestin) | FLuc enzyme inh inactive | A549 tox-2 inconclusive | ARE-Fluc inh 6.5µM
CCOc1ccc(/C=C/c2nc(C#N)c(NC(C)c3ccccc3)o2)cc1 (centres undefined)	none (no result: B2AR arrestin)
COc1ccc(-c2c(C#N)c(SCC(=O)c3cc4ccccc4oc3=O)nc(C)c2C(=O)Nc2ccccc2)cc1	Nrf2 inh 6.5µM | FLuc enzyme inh inactive | A549 tox-2 inactive | ARE-Fluc inh 15µM
Cc1cc(/C=C(\C#N)C(=O)Nc2ccc(Cl)cc2)c(C)n1-c1ccc(N2CCOCC2)c([N+](=O)[O-])c1	Nrf2 inh 5.2µM | FLuc enzyme inh inactive | A549 tox-2 inactive | ARE-Fluc inh 4.6µM
Cc1ccc(NC(=O)/C(C#N)=C/c2cc(C)n(-c3ccc(N4CCOCC4)c([N+](=O)[O-])c3)c2C)c(C)c1	Nrf2 inh inconclusive
COc1cccc(-c2cc(C(=O)Nc3cc(C)n(Cc4ccc(Cl)cc4)n3)no2)c1	Nrf2 inh inconclusive, A549 tox-1 inconclusive | FLuc enzyme inh inactive | A549 tox-2 inactive | ARE-Fluc inh 7.3µM
Cc1cc(NC(=O)c2cc(-c3ccc(F)cc3)on2)nn1Cc1ccc(Cl)cc1	Nrf2 inh 6.5µM (no result: B2AR arrestin) | FLuc enzyme inh inactive | A549 tox-2 inactive | ARE-Fluc inh 2.9µM
COc1ccc(CNC(=O)c2ccc(-c3nc(CSc4ccccc4)c(C)o3)cc2)c(OC)c1	none (no result: B2AR arrestin)
Cc1oc(-c2ccc(C(=O)Nc3cccc(C(F)(F)F)c3)cc2)nc1CSc1ccccc1	miR-21 FLuc inconclusive, Nrf2 inh 5.8µM, A549 tox-1 inconclusive (no result: B2AR arrestin) | FLuc enzyme inh inactive | A549 tox-2 inactive | ARE-Fluc inh 1.8µM
CCOc1ccc(NC(=O)C2CCN(S(=O)(=O)c3c(C)noc3/C=C/c3cccs3)CC2)cc1	none (no result: B2AR arrestin)
CCn1nc(C)c(CNC(=O)c2ccc(OC3CCN(Cc4ccccn4)CC3)cc2)c1C	Nrf2 inh 1.5µM | FLuc enzyme inh inactive | A549 tox-2 inactive | ARE-Fluc inh 1.5µM
CCOc1ccccc1CN1CCC(Oc2ccc(C(=O)NCc3ccccn3)cc2)CC1	Nrf2 inh inconclusive
COc1ccc2[nH]c(=O)c3c(c2c1)OC(C)(C)C=C3	miR-21 FLuc inconclusive, Nrf2 inh 8.2µM | FLuc enzyme inh inactive | A549 tox-2 inactive | ARE-Fluc inh 12µM
Cn1cccc/c1=N\c1cccc[n+]1C	Nrf2 inh 2.9µM | FLuc enzyme inh inactive | A549 tox-2 inactive | ARE-Fluc inh 5.8µM
O=C(Cn1cnc2ccccc21)Nc1ccc(SC(F)F)cc1	Nrf2 inh 4.1µM | FLuc enzyme inh inactive | A549 tox-2 inactive | ARE-Fluc inh inconclusive
COc1ccc(NC(=O)COC(=O)Cn2cnc3ccccc32)cc1	none (no result: miR-21 FLuc)
CCc1ccccc1NC(=O)C1CCN(c2nn3c(=O)cc(C)nc3s2)CC1	none (no result: B2AR arrestin)
CSc1nc2sc3c(c2c(=O)n1-c1ccccc1C)CCCC3	none (no result: B2AR arrestin, Nrf2 inh)
CSc1nc2nc3c(cc2c(=O)n1-c1ccccc1C)CCCC3	Nrf2 inh 5.8µM, A549 tox-1 inconclusive | FLuc enzyme inh inactive | A549 tox-2 inactive
